Measurements from patent US20070129313A1, “Sulfonylamino-peptidomimetics active on the somatostatin receptor subtypes 4 (sstr4) and 1 (sstr1)” (SIEGFRIED WURSTER, priority 2003, published 2007).

Sequences of proteins named here, by UniProt entry; tags and fusion partners are left off.
UniProt P30872, whole entry: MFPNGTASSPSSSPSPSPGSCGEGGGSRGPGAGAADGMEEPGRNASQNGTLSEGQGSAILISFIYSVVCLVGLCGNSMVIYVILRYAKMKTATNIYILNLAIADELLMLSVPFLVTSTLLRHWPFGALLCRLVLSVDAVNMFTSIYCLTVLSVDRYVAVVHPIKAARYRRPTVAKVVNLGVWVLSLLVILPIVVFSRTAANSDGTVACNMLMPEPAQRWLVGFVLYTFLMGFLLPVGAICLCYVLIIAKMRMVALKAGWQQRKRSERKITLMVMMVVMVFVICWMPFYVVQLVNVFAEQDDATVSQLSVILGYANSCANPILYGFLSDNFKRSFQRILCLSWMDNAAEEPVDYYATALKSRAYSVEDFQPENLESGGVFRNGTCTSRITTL
UniProt P30874, whole entry: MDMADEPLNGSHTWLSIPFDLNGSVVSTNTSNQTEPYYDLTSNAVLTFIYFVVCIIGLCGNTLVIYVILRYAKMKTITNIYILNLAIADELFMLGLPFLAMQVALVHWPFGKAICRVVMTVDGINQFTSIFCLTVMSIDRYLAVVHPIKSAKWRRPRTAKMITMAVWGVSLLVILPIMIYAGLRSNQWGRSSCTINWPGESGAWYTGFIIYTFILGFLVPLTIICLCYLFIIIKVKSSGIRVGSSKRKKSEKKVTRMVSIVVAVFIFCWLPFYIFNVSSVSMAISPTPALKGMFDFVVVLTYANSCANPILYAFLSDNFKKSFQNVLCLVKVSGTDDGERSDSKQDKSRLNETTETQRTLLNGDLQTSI
UniProt P32745, whole entry: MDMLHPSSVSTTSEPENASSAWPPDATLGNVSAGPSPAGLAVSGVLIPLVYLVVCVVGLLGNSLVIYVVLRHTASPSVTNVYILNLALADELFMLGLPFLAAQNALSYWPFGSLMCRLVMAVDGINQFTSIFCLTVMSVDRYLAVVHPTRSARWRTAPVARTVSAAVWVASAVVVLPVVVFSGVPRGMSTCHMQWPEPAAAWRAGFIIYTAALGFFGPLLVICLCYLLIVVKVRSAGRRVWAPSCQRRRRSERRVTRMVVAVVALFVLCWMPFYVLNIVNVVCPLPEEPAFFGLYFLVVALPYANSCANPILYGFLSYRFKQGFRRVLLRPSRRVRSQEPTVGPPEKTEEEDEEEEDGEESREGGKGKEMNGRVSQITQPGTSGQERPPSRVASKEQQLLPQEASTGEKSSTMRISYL

Legend:
[1] = target: human somatostatin receptor subtype SSTR1 (Homo sapiens, UniProt P30872); experiment: Competition binding with 125I-LTT-sst-28, CHO cell membranes, SSTR1; conditions: read-out: Ki (SSTR1), membranes of CHO cells stably transfected with human SSTR1, Ki from IC50 by Cheng-Prusoff
Protocol: (§1) The affinity of the compounds of the invention for the five human somatostatin receptor subtypes (SSTR1, SSTR2, SSTR3, SSTR4, and SSTR5) was determined in competition binding assays with (^125I-Tyr)-[Leu^8, DTrp^22]-somatostatin-28 (^125I-LTT-sst-28). The biological material for these experiments consisted of membranes from Chinese hamster ovary (CHO) cells stably transfected with one of the five human somatostatin receptor subtypes. Membranes (3-20 μg of total protein per sample) and trace amount of ^125I-LTT-sst-28 were incubated in 10 mM Hepes, 1 mM EDTA, 5 mM MgCl2, 5 mg/ml of BSA and 30 μg/ml bacitracin, pH 7.6 with six concentrations of the compounds. Each concentration was run in duplicate. Nonspecific binding was defined by 1 μM somatostatin-14 (sst-14) and corresponded to 5-25% of total binding. After 60 min at room temperature, incubations were terminated by rapid vacuum filtration through GF/B glass fiber filter mats (presoaked at 4° C. in 200 ml of 10 mM Hepes, 1 mM EDTA, 5 mM MgCl2, pH 7.6) and three 5 ml washes with ice-cold wash buffer (20 mM TRIS, 1 mM EDTA, 5 mM MgCl2, pH 7.4). The filters were then dried, impregnated with scintillate and their radioactivity was measured by scintillation counting. […] Affinity constants (Ki) were calculated from the IC50 values according to the Cheng-Prusoff's equation (Cheng and Prusoff, 1973). […]

[2] = target: human somatostatin receptor subtype SSTR2 (Homo sapiens, UniProt P30874); experiment: Competition binding with 125I-LTT-sst-28, CHO cell membranes, SSTR2; conditions: read-out: Ki (SSTR2), membranes of CHO cells stably transfected with human SSTR2, Ki from IC50 by Cheng-Prusoff
Protocol: as §1

[3] = target: human somatostatin receptor subtype SSTR3 (Homo sapiens, UniProt P32745); experiment: Competition binding with 125I-LTT-sst-28, CHO cell membranes, SSTR3; conditions: read-out: Ki (SSTR3), membranes of CHO cells stably transfected with human SSTR3, Ki from IC50 by Cheng-Prusoff
Protocol: as §1

[4] = target: human somatostatin receptor subtype SSTR4 (Homo sapiens, UniProt P31391); experiment: Competition binding with 125I-LTT-sst-28, CHO cell membranes, SSTR4; conditions: read-out: Ki (SSTR4), membranes of CHO cells stably transfected with human SSTR4, Ki from IC50 by Cheng-Prusoff
Protocol: as §1

Compound: NCC[C@H](NS(=O)(=O)c1cccc2ccccc12)C(=O)N[C@@H](Cc1ccccc1)C(N)=O
- Ki [1]: > 3000 nM
- Ki [2]: > 30000 nM
- Ki [3]: > 10000 nM
- Ki [4]: 5.9 nM
